For series [1] the following is noted: in vivo; cited from earlier work.
The nature of series [2]: Nasal administration of diazepam and midazolam preparations in two healthy volunteers. As to conditions: IN commercial formulations: DZP solvents 40% propylene glycol and 10% ethanol; MDZ pH=3.

Take `CN1C(=O)CN=C(c2ccccc2)c2cc(Cl)ccc21` [DZP, diazepam]: the “First-pass Effect” value in series [1] is reported as “Low”. In addition, in series [2], the “nasal discomfort (in words)” value is recorded as “significant discomfort”.

Values taken from patent US20070208011A1, “Supersaturated Benzodiazepine Solutions and Their Delivery” (priority 2005, published 2007).
